Tests used:
[1] = target: T1, C3a anaphylatoxin chemotactic receptor (Homo sapiens, UniProt Q16581); experiment: Agonist activity at human C3a receptor expressed in RBL-2H3 cells assessed as beta-hexosaminidase activity in cell supernatant by degranulation assay; format: functional, cell-based
T1 sequence (Q16581 whole entry): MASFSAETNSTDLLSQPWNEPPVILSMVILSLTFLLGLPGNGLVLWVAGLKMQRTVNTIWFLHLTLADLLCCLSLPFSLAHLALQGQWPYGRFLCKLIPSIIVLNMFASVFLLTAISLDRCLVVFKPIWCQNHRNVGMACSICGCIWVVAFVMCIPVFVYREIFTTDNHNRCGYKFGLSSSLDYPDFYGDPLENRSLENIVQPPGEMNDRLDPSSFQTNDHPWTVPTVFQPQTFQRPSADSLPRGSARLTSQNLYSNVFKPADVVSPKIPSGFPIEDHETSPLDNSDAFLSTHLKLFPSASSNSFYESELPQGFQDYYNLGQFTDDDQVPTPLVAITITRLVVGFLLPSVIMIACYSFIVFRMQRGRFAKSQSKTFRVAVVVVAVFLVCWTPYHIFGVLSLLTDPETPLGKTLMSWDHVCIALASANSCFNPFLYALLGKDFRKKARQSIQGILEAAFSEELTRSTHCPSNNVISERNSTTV
In short: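 Transfected RBL-2H3 cells kept in DMEM, 10% FCS, 400 mg/liter G-418, 37°C, 5% CO2. Degranulation read as β-hexosaminidase activity in supernatant. Secretion expressed as percent of maximal response to 200 nM recombinant human C3a or 10 nM FLPLAR. EC50, calculated maximum and SEM from iterative curve fitting.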

[2] = target: T1, C3a anaphylatoxin chemotactic receptor; experiment: Antagonist activity at C3a receptor in dbcAMP differentiated human U937 cells assessed as inhibition of increase in intracellular calcium compound preincubated for 10 mins using Fluo-R staining by microplate reader; format: functional, cell-based, U-937
[3] = target: T1, C3a anaphylatoxin chemotactic receptor; experiment: Antagonist activity at human C3a receptor expressed in RBL-2H3 cells assessed as beta-hexosaminidase activity in cell supernatant compound preincubated for 10 mins by degranulation assay; format: functional, cell-based
In short: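 RBL-2H3 cells expressing human C3aR (DMEM, 10% FCS, G-418, 37°C) were pretreated with peptide for 10 min before 200 nM recombinant human C3a or 10 nM FLPLAR was added. β-Hexosaminidase release in supernatant was measured as percent of the agonist-alone response. IC50, calculated minimum and SEM came from iterative curve fitting.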

[4] = target: T1, C3a anaphylatoxin chemotactic receptor; experiment: Partial agonist activity at C3a receptor in dbcAMP differentiated human U937 cells assessed as increase in intracellular calcium using […] staining by microplate reader; format: functional, cell-based, U-937

SMILES: CC(=O)N[C@@H](Cc1c[nH]c2ccccc12)C(=O)N[C@@H](Cc1c[nH]c2ccccc12)C(=O)N[C@@H](CC(=O)O)C(=O)N[C@@H](CCCNC(=N)N)C(=O)N[C@@H](CCCNC(=N)N)C(=O)N[C@@H](Cc1c[nH]c2ccccc12)C(=O)N[C@@H](CCCNC(=N)N)C(=O)N[C@@H](C)C(=O)N[C@@H](CO)C(=O)N[C@@H](CCCCN)C(=O)N[C@@H](CC(C)C)C(=O)NCC(=O)N[C@@H](CC(C)C)C(=O)N[C@@H](C)C(=O)N[C@@H](CCCNC(=N)N)C(=O)O
- EC50 [1]: 224 nM
- IC50 [2]: 8910 nM
- IC50 [3]: 15.5 nM

SMILES: CC(=O)N[C@@H](Cc1c[nH]c2ccccc12)C(=O)N[C@@H](Cc1c[nH]c2ccccc12)C(=O)N[C@@H](CCC(=O)O)C(=O)N[C@@H](CCCNC(=N)N)C(=O)N[C@@H](CCCNC(=N)N)C(=O)N[C@@H](Cc1c[nH]c2ccccc12)C(=O)N[C@@H](CCCNC(=N)N)C(=O)N[C@@H](C)C(=O)N[C@@H](CO)C(=O)N[C@@H](CCCCN)C(=O)N[C@@H](CC(C)C)C(=O)NCC(=O)N[C@@H](CC(C)C)C(=O)N[C@@H](C)C(=O)N[C@@H](CCCNC(=N)N)C(=O)O
- EC50 [1]: 35.5 nM
- IC50 [2]: 1120 nM
- EC50 [4]: 661 nM
- IC50 [3]: 26.3 nM
